Drawing on ChEMBL document CHEMBL4354860, “Targeting the Regulatory Site of ER Aminopeptidase 1 Leads to the Discovery of a Natural Product Modulator of Antigen Presentation” (J Med Chem, 2020), this text covers Activity for one compound.

Protein sequences, listed by entry. Tags and fused reporters are not part of them.
UniProt Q9NZ08, whole entry Y684F: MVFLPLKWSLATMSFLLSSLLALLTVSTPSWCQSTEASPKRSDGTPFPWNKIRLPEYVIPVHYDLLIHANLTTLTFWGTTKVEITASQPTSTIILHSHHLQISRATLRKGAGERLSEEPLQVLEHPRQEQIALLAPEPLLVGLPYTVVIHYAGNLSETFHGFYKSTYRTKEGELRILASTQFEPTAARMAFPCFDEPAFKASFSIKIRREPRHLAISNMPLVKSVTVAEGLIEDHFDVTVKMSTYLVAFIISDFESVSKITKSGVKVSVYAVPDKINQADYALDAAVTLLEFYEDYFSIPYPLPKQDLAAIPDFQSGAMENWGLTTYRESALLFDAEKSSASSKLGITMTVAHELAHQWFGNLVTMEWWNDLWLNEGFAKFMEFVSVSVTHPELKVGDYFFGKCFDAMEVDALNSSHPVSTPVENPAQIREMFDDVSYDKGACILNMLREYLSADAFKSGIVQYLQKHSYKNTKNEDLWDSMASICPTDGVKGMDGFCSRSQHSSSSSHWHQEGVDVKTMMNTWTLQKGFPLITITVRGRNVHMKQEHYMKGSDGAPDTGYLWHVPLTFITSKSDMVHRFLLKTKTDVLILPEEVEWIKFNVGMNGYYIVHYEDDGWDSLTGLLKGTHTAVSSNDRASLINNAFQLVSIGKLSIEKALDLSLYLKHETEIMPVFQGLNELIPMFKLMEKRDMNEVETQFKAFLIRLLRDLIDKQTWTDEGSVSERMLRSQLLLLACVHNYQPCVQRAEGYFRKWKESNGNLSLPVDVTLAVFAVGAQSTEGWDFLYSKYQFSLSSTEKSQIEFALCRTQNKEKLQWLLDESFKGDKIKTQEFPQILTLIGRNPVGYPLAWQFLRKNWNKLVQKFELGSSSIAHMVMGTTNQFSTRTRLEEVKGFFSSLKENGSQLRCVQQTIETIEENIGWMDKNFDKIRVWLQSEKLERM
UniProt Q9NZ08, whole entry K685A: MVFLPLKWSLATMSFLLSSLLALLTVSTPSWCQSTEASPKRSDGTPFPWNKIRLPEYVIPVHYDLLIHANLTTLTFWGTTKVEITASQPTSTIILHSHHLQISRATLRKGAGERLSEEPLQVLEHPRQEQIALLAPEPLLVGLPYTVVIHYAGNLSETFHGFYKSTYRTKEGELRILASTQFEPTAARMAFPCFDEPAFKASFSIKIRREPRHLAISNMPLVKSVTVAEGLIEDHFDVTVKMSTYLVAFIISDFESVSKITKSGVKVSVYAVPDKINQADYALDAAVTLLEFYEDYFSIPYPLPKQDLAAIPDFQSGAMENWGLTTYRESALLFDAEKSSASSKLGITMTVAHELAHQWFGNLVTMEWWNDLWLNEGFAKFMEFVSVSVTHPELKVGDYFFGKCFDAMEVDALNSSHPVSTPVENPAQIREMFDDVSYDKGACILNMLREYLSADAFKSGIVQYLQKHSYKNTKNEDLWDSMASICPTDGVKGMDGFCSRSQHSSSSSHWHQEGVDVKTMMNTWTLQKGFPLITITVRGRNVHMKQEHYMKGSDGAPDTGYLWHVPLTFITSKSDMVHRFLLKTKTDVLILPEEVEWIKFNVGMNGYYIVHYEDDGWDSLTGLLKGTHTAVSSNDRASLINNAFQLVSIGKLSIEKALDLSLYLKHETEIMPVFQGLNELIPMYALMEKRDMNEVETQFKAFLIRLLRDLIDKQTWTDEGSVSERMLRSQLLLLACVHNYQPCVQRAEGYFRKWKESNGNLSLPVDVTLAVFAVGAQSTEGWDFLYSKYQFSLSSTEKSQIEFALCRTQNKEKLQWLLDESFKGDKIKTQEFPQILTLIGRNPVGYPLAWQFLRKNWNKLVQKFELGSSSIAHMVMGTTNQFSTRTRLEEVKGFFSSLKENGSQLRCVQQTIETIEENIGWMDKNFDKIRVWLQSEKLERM
UniProt Q9NZ08, whole entry K685M: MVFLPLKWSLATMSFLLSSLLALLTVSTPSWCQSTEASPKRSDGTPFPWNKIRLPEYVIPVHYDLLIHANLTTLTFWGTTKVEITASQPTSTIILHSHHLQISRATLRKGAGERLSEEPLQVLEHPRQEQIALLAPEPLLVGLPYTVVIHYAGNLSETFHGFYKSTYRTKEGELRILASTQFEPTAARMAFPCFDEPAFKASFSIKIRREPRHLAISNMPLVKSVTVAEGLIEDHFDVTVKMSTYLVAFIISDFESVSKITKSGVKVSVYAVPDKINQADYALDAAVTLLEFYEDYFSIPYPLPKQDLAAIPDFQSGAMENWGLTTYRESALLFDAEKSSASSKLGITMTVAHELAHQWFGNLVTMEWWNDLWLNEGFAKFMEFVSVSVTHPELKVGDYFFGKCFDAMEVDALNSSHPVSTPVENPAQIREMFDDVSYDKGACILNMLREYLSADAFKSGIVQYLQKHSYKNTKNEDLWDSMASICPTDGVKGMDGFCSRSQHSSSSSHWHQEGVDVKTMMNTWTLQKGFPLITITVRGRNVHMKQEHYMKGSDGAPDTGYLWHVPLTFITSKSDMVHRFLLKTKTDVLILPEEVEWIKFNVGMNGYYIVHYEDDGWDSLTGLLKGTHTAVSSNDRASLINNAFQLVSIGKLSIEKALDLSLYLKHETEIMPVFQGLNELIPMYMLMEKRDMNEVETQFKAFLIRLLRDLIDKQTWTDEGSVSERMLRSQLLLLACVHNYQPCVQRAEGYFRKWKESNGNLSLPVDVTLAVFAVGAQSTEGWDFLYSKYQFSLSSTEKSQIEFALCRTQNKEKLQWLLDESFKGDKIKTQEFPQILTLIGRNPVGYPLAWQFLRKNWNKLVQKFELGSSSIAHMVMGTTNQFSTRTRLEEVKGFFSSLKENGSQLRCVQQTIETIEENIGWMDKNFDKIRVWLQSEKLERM
UniProt Q9NZ08, whole entry Y684F/K685A: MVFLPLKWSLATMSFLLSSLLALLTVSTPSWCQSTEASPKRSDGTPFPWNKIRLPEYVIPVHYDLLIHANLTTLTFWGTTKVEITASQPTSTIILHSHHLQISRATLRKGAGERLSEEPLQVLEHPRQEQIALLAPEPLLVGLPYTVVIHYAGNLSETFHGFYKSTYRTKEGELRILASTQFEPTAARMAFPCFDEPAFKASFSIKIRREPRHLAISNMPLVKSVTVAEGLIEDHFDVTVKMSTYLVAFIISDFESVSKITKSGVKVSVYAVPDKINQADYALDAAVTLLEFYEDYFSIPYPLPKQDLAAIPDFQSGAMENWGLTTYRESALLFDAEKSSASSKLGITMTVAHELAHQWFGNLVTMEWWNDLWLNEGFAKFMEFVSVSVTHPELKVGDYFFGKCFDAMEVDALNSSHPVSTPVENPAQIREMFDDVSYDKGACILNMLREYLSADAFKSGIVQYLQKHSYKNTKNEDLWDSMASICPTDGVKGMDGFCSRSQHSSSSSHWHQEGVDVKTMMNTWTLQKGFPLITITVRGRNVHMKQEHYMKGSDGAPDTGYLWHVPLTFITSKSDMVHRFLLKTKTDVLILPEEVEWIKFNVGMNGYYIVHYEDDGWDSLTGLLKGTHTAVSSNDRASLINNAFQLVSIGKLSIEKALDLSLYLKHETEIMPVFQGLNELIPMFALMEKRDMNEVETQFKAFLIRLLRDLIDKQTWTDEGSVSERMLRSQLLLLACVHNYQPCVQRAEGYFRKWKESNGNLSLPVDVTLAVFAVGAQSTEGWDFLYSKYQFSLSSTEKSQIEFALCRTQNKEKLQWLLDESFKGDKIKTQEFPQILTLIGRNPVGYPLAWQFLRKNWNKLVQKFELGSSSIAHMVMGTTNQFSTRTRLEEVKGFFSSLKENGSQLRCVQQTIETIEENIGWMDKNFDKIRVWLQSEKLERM

The source made the active and inactive calls. No cut-off for these calls is given here.

For assay [1], the target named is Endoplasmic reticulum aminopeptidase 1 (Homo sapiens) (UniProt Q9NZ08). Description: Activation of full length C-terminal His6-tagged ERAP1 (unknown origin)-mediated antigenic epitope destruction assessed as trimming of 9mer peptide substrate YTAFTIPSI to 8mer peptide TAFTIPSI at 100 uM after 60 mins by Rapidfire-MS analysis.
Assay [2] has the same target. Description: Allosteric competitive activation of full length C-terminal His6-tagged ERAP1 (unknown origin) assessed as decrease in K prime without change in Vmax at 400 to 800 nM using varying level of Leu-pNA as substrate measured up to 60 mins by Michaelis-Menten analysis.
In assay [3] the test system is Endoplasmic reticulum aminopeptidase 1 (Homo sapiens), Q9NZ08 [Y684F]. Description: Activation of full length C-terminal His6-tagged ERAP1 Y684F mutant (unknown origin)-mediated substrate hydrolysis using Leu-AMC as substrate after 60 mins by Rapidfire-MS analysis.
Assay [4] relates to Endoplasmic reticulum aminopeptidase 1 (Homo sapiens), Q9NZ08 [K685A]. Description: Activation of full length C-terminal His6-tagged ERAP1 K685A mutant (unknown origin)-mediated substrate hydrolysis using Leu-AMC as substrate after 60 mins by Rapidfire-MS analysis.
Assay [5] has as its system Endoplasmic reticulum aminopeptidase 1 (Homo sapiens), Q9NZ08 [K685M]. Description: Activation of full length C-terminal His6-tagged ERAP1 K685M mutant (unknown origin)-mediated substrate hydrolysis using Leu-AMC as substrate after 60 mins by Rapidfire-MS analysis.
Assay [6] concerns Endoplasmic reticulum aminopeptidase 1 (Homo sapiens), Q9NZ08 [Y684F,K685A]. Description: Activation of full length C-terminal His6-tagged ERAP1 Y684F/K685A double mutant (unknown origin)-mediated substrate hydrolysis using Leu-AMC as substrate after 60 mins by Rapidfire-MS analysis.
The target in assay [7] is Endoplasmic reticulum aminopeptidase 1 (Homo sapiens) (UniProt Q9NZ08). Description: Activation of human recombinant ERAP1 assessed as induction of substrate hydrolysis at 10 uM using Leu-AFC as substrate measured after 60 mins by fluorescence based analysis relative to control. On the set-up: scale not given: the % may be the effect or the level left.
For assay [8] the target is unchanged. Description: Activation of human recombinant ERAP1 assessed as induction of substrate hydrolysis at 20 uM using Leu-AFC as substrate measured after 60 mins by fluorescence based analysis relative to control. On the set-up: scale not given: the % may be the effect or the level left.

Take `C[C@@H]1C[C@H](O)[C@@]2(C)C(C(=O)O)=CCC[C@@H]2[C@@]1(C)CCc1ccoc1.N`: the outcome in assay [1], in assay [3], in assay [4], in assay [5] and in assay [6] was inactive. Besides, the result in assay [2] was Active. Besides, the Activity was 161% in assay [7] and 167% in assay [8].
